The subject of this data set is COC(=O)[C@@H]1C(=O)C(C)=C2O[C@@]3(C[C@]2(C)[C@H]1C)[C@@H](C)CC[C@H]1C(C)(C)OC(=O)CC[C@@]13C. The data set is described as follows: purified protein. The settings on record: 50 mM HEPES pH 7.5, 1 μM FeSO4, 500 μM ascorbate, 500 μM α-KG, 30 °C, 2 min, 0.1 μM enzyme.

As usually defined, the Km is the substrate concentration at which the rate is half of its maximum. The term kcat denotes the number of substrate molecules converted per active site and unit of time at saturation. For “NvfI (Aspergillus novofumigatus IBT 16806; Y116A)”, the Km is on record as 19.5 ± 4.8 µM and the kcat stood at 0.00283 ± 0.00017 s⁻¹.
